# Source: IntAct's records for PubMed 20388642
# B1: Optineurin (Homo sapiens), Q96CV9 (parent)
# chain: MSHQPLSCLTEKEDSPSESTGNGPPHLAHPNLDTFTPEELLQQMKELLTENHQLKEAMKLNNQAMKGRFEELSAWTEKQKEERQFFEIQSKEAKERLMALSHENEKLKEELGKLKGKSERSSEDPTDDSRLPRAEAEQEKDQLRTQVVRLQAEKADLLGIVSELQLKLNSSGSSEDSFVEIRMAEGEAEGSVKEIKHSPGPTRTVSTGTALSKYRSRSADGAKNYFEHEELTVSQLLLCLREGNQKVERLEVALKEAKERVSDFEKKTSNRSEIETQTEGSTEKENDEEKGPETVGSEVEALNLQVTSLFKELQEAHTKLSEAELMKKRLQEKCQALERKNSAIPSELNEKQELVYTNKKLELQVESMLSEIKMEQAKTEDEKSKLTVLQMTHNKLLQEHNNALKTIEELTRKESEKVDRAVLKELSEKLELAEKALASKQLQMDEMKQTIAKQEEDLETMTILRAQMEVYCSDFHAERAAREKIHEEKEQLALQLAVLLKENDAFEDGGRQSLMEMQSRHGARTSDSDQQAYLVQRGAEDRDWRQQRNIPIHSCPKCGEVLPDIDTLQIHVMDCII
# Variants of: B1
# Conditions: with rab8a_human RAB8A
row,effect of a mutation on the interaction,Variant
1,disrupting interaction,E50K
